The values below are quoted from earlier work in patent US11311637B2, “Positron emitting radionuclide labeled peptides for human uPAR PET imaging” (CURASIGHT A/S, priority 2012, dated 2022).

The conditions of the data set: mouse, in vivo.

As to 18F-FDG, the bone uptake is 2.49 % ID/g.
